Molecular target: L19 IgG control antibody (unmodified, without linker) (human)
Test: SPR; Biacore T100; L19 IgG or modified versions immobilised on a CM5 chip treated with antibody capture kit; soluble Fc receptor fragments as analytes at 1.56 - 50 nM; association and dissociation kinetics used to calculate the dissociation constant

Chains of the proteins cited; added tags and fusions are not shown. Chains listed by the source or under a name are the forms on record and can include a tag or linker. Residues count along the entry.
UniProt P08637, 17-208: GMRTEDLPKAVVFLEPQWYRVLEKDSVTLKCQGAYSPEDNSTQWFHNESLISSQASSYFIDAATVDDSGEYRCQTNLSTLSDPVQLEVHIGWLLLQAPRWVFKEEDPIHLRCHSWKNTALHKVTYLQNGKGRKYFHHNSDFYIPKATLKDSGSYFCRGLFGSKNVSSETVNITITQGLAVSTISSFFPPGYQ
L19 IgG control antibody (unmodified, without linker) (human), heavy, as listed by the source, chain 1 of 2: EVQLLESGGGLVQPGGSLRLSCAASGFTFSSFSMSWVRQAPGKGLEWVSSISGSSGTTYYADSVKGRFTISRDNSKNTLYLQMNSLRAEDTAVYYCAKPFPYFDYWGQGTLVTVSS
L19 IgG control antibody (unmodified, without linker) (human), light, as listed by the source, chain 2 of 2: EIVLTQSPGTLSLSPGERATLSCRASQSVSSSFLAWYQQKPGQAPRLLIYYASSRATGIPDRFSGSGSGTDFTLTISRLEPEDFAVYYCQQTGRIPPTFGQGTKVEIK

Kd: 89 nM
Substance: Fcγ RIIIA/CD16a, soluble Fc receptor fragment (from UniProt P08637 17-208)
